PMC8036708

How the values were obtained:
[1] = molecular target: adenovirus terminal protein-thioredoxin fusion protein (TP–Trx), bacterially expressed (adenovirus (serotype not given)); assay: AlphaScreen or HTRF; 30 nM TP–Trx (or Trx tag alone) on nickel NTA donor beads, serial dilutions of GST-tagged importins or GST control on GST acceptor beads; 0.5% BSA added, dilutions in PBS, room temperature in the dark; one-phase association fit
[2] = molecular target: adenovirus terminal protein-thioredoxin fusion protein (TP–Trx), bacterially expressed (adenovirus (serotype not given))

“Imp α/β1 heterodimer (GST-Imp α2 with GST-cleaved Imp β1) (from UniProt P52293 1-529; P70168 1-876) (complex)” was tested, and the Kd [1] was 59 nM and the Nf/Cf of TP–Trx–AF594 microinjected into HeLa cells incubated with ivermectin (30 µM), an Imp α/β inhibitor; 1.62 with DMSO [2] was 0.86.
